AlphaSeq binding of Ab-14 heavy chain variants to a spike HR2 peptide

Source: Engelhart et al. 2022 (doi:10.1038/s41597-022-01779-4), MIT Lincoln Laboratory and A-Alpha Bio; data file from the FLAb repository.

Binding partner: SARS-CoV-2 spike HR2 peptide, sequence PDVDLGDISGINAS.

Parent scFv Ab-14: VH joined to VL by three GGGGS repeats. Changes lie in the heavy chain CDRs alone.
VH: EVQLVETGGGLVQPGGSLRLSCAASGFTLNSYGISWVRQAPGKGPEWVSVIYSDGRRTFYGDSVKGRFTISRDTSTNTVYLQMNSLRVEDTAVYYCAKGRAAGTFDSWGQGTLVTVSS
VL: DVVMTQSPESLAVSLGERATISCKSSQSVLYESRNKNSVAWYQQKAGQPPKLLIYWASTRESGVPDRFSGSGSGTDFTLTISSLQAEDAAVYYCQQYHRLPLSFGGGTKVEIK

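AAYL49 was designed without a model: most single CDR substitutions and a random sample of double and triple ones. The scFvs were displayed on barcoded MATa yeast, the peptide on MATalpha yeast. After mating in shaken culture at 30 °C for 16 h, diploids were selected and their barcode pairs sequenced. A regression on co-assayed BCL2-family reference pairs converts the normalised counts of each replicate to an apparent Kd. Mating was done three times.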

Substitutions are numbered in sequence along the VH above, starting at 1 (not Kabat). Scale: log10 of Kd in nM, estimated from mating counts; low values are strong binders. An entry "nd" has no value in the source: the pair was not observed among the diploids in that replicate. This suggests poor binding but is not conclusive. As a blank, each scFv also met three strains without target: over library AAYL49, 15% of these pairings were detected, typically at 4.06 and seldom below 2.83. The control count says in how many pairings with the empty strains this scFv gave a signal. In this assay the parent's reference entry averaged 0.65; its copy inside this library read 4.11 (one replicate of three).

The variant F27V/L29D/D54M gave nd, nd, nd (controls 2 of 9).
The variant G99A/A101I/T104H gave nd, nd, 3.16 (controls 0 of 9).
The variant N30G/S63M/G99V gave 4.35, nd, nd (controls 0 of 9).
The variant V64S/G103E gave nd, nd, nd (controls 0 of 9).
The variant Y60E/R100H gave 6.01, 3.60, 4.55 (controls 6 of 9).
The variant V50G/S53L/A102F gave nd, nd, nd (controls 1 of 9).
The variant L29S/N30Q/I51K gave nd, nd, nd (controls 0 of 9).
The variant I34M/F105E gave nd, nd, nd (controls 0 of 9).
The variant I51H/T58R/G61A gave nd, nd, nd (controls 1 of 9).
The variant S53N/G61D/G103S gave nd, nd, nd (controls 0 of 9).
The variant T28I/V64N/S107R gave nd, 4.88, nd (controls 2 of 9).
The variant N30V/T58N/V64A gave nd, nd, nd (controls 0 of 9).
The variant S53M/T58L/G103I gave nd, 4.87, nd (controls 1 of 9).
The variant S31P/S53E/S107C gave 4.78, nd, 4.80 (controls 3 of 9).
The variant L29N/Y32K/D106W gave nd, nd, nd (controls 0 of 9).
The variant G99A/G103D/D106T gave nd, 2.77, nd (controls 1 of 9).
The variant G55T/T58K/G99P gave 4.93, nd, nd (controls 1 of 9).
The variant S35F/G55Q/D106R gave nd, nd, nd (controls 1 of 9).
The variant I51S/G55S/R57N gave nd, nd, nd (controls 0 of 9).
The variant R100D/A102M/G103H gave 0.90, 0.87, 1.18 (controls 1 of 9).
The variant Y32E/S35T gave 5.27, 4.04, 4.41 (controls 1 of 9).
The variant R57F/T58I/R100V gave nd, nd, nd (controls 0 of 9).
The variant D54H/R56V/T104D gave 5.61, nd, nd (controls 1 of 9).
The variant F27W/S53D/G99S gave nd, nd, nd (controls 2 of 9).
The variant L29H/I34L/V50C gave nd, nd, 3.87 (controls 1 of 9).
The variant T58M/F59P/D62N gave nd, nd, 5.24 (controls 3 of 9).
The variant G55R gave nd, nd, nd (controls 1 of 9).
The variant G26C/S31P/G103R gave nd, nd, nd (controls 0 of 9).
The variant F27K/G33R/V64T gave nd, 4.04, nd (controls 2 of 9).
The variant Y32R/F59R/G61P gave nd, nd, nd (controls 0 of 9).
The variant V50L/Y60H/R100P gave nd, nd, nd (controls 2 of 9).
The variant V50T/I51P/D62R gave nd, nd, nd (controls 0 of 9).
The variant T28F/V50I/G55M gave nd, nd, nd (controls 0 of 9).
The variant R56G/D62F/G99T gave nd, nd, nd (controls 0 of 9).
The variant G61L/S63Q/F105Q gave nd, 4.51, 3.53 (controls 4 of 9).
The variant S35Q/F59H/R100N gave nd, nd, nd (controls 0 of 9).
The variant F27T/S35Q/S53P gave nd, nd, nd (controls 0 of 9).
The variant R56V/Y60M/G103K gave 1.70, 1.88, 2.07 (controls 2 of 9).

Excerpt, the first 6 entries:

F27V/L29D/D54M: nd, nd, nd (controls 2 of 9).
G99A/A101I/T104H: nd, nd, 3.16 (controls 0 of 9).
N30G/S63M/G99V: 4.35, nd, nd (controls 0 of 9).
V64S/G103E: nd, nd, nd (controls 0 of 9).
Y60E/R100H: 6.01, 3.60, 4.55 (controls 6 of 9).
V50G/S53L/A102F: nd, nd, nd (controls 1 of 9).